Tests used:
hERG channel = hERG channel (Homo sapiens, UniProt Q12809); assay: hERG channel binding assay (predictor hERG fluorescence polarization)
ERRβ = target: T1, ERRβ (Homo sapiens, UniProt O95718); assay: TR-FRET (LanthaScreen) ERRβ binding assay; conditions: maximum concentration tested 10 μM
T1 construct: purchased Life Technologies
T1 sequence (O95718 208-432 limits assumed): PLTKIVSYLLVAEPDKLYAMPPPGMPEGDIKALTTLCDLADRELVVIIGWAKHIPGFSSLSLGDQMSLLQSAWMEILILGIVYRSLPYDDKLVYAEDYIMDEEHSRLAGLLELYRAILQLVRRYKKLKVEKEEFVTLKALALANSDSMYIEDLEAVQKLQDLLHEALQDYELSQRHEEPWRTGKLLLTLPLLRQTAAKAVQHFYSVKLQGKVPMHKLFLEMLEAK
Protocol: ERRγ binding assay was conducted with Lantascreen assay system (Life Technologies, Grand Island, NY, USA), which was based on TR-FRET, followed by manufacturer’s instruction. Briefly, compounds were serially diluted with 2-fold staring from 10 μM and 10 μL of each diluent was added in 384 well plate. Then, GST-conjugated ERRγ LBD (ligand-binding domain) was added to be 5 nM. Next, the mixture of fluorescien-conjugated coactivator PGC1a (final concentration to be 500 nM) and Tb-a-GST antibody (final concentration to be 5 nM) was added. The reaction mixture was incubated at rt in dark state for 1 h. TR-FRET activity was measured at 340 nm excitation and 495 nm/520 nm dual emission using microplate reader (Biotek, SynergyNeo, Winooski, VT, USA) and IC50 value was calculated with the Prism 6 software.
ERRs and ERα binding assay used same assay system as ERRγ’s, Lanthascreen assay system. Therefore, procedure was same as ERRγ binding assay except tested enzymes (ERRα, ERRβ, ERα). Used reference compounds were 4-OHT 1 for ERα and ERRβ binding assay, and XCT790 for ERRα binding assay.

By UniProt entry, the sequences of proteins in these tests, tags left out. Where a name states a change or a piece, a line headed by the entry shows the natural chain unless it says otherwise.
UniProt Q12809: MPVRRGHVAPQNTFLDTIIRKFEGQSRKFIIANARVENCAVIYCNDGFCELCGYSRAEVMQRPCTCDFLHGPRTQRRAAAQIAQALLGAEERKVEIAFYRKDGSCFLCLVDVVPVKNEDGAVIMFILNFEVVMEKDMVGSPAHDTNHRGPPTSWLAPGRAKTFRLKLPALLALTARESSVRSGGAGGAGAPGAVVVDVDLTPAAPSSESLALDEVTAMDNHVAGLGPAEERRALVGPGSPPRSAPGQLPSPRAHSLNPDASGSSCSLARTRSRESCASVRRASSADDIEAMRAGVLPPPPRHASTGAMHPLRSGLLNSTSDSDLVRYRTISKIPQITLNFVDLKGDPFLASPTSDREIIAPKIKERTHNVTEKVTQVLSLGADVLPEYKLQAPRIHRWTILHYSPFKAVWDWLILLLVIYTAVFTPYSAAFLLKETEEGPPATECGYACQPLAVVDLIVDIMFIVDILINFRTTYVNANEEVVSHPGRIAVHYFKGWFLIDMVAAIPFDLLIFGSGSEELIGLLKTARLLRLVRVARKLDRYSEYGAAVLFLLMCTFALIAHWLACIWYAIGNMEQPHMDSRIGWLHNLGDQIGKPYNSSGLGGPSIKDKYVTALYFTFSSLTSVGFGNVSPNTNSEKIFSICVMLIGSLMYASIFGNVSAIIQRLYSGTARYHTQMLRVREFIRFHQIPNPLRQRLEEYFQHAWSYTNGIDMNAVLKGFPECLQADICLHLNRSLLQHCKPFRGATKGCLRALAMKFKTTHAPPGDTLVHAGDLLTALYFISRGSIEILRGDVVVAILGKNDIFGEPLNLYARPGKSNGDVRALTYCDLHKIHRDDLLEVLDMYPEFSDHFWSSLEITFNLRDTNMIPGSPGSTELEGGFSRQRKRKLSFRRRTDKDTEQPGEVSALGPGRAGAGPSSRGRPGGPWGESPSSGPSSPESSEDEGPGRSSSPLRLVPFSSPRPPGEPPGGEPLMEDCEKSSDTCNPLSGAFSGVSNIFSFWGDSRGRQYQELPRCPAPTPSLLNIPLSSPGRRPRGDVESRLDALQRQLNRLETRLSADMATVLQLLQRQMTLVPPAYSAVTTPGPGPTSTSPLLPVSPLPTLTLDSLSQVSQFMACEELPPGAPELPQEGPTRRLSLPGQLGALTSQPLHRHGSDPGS

- IC50 (ERRβ): > 10 µM
Compound: CN(C)CCOc1ccc(/C(=C(/CCCO)c2ccccc2)c2ccc(O)cc2)cc1 [Compound 4, GSK5182, reference compound]
- IC50 (hERG channel): > 30 µM
